Measured values reported in PubChem BioAssay AID2016 (NMMLSC, 2009).
The entries are a selection whose mix differs from that of the whole data set. Calls of active or inactive are those of the source.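 The calls were made as follows: active = GFP response versus DMSO above a set limit, roughly screen mean plus 3 SD (cut at about 180% in these data); inconclusive = fewer than 70 cells counted for a yeast strain; inactive = the rest.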

Test: modulators of MEP2-GFP levels in yeast, primary screen, S. cerevisiae, multiplex flow cytometry, MLPCN library (AID 2016);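 also: median GFP fluorescence of the barcode-gated MEP2-GFP cells per well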
Settings: S. cerevisiae MEP2-GFP strain, 3 h, at 10 µM, stronger effect = higher value, 100% = DMSO control level

Structure (SMILES) | GFP response vs DMSO
Cc1cccc(OCC(=O)OC2CN3CCC2CC3)c1 (stereo unspecified) | inactive: 93.5%
O=C(OC1CN2CCC1CC2)c1ccc(Cl)cc1 (stereo unspecified) | inactive: 90.9%
COc1cc(C(=O)NCC2(N3CCOCC3)CCCCC2)cc(Cl)c1OC(C)C | inactive: 102%
O=[As](O)(O)c1cccnc1 | inactive: 100%
CS(=O)(=O)c1ccc(Cl)c(NC(=O)COC(=O)C(O)(c2ccccc2)c2ccccc2)c1 | inactive: 104%
N#CCCN(C(=O)COC(=O)C(O)(c1ccccc1)c1ccccc1)c1ccc(F)cc1 | inactive: 95.4%
CCOP1(=S)c2c(C)nn(CCC#N)c2N=C(c2ccc(F)cc2)N1C (stereo unspecified) | inactive: 97.3%
CN(C(=O)Cc1ccccc1)[C@@H]1CC[C@]2(CCCO2)C[C@H]1N1CCCC1 | inactive: 96.7%
CN(C)C(=O)c1cc([N+](=O)[O-])cc2c1-c1c(cc([N+](=O)[O-])cc1[N+](=O)[O-])C2=O | inactive: 83.8%
O=[N+]([O-])c1ccc2c(c1)nnn2O | inactive: 106%
CN(C(=O)Cc1ccc(Cl)c(Cl)c1)[C@H]1CC[C@@]2(CCCO2)C[C@@H]1N1CCCC1 | inactive: 96.1%
NC(=O)Nc1ccc([As](=O)(O)O)cc1 | inactive: 88.8%
Nc1ccccc1[As](=O)(O)c1ccccc1 | inactive: 93.5%
O=C(O)COc1ccc([As](=O)(O)O)cc1[N+](=O)[O-] | inactive: 130%
CCOP1(=S)c2c(C)nn(CCC#N)c2N=C(c2ccccc2F)N1C (stereo unspecified) | inactive: 101%
O=P(Nc1nccs1)(c1ccccc1)c1nc2ccccc2s1 (stereo unspecified) | inactive: 98.8%
O=P(Nc1nccs1)(Oc1ccccc1)Oc1ccccc1 | inactive: 99.4%
CS(=O)(=O)c1cc([N+](=O)[O-])c2no[n+]([O-])c2c1 | inactive: 102%
CCN(CC)C(=S)SC(NC=O)C(Cl)(Cl)Cl (stereo unspecified) | inactive: 105%
CC(C)NC(=O)NP(=O)(Oc1ccccc1)Oc1ccccc1 | inactive: 94.7%
O=[N+]([O-])c1cc([N+](=O)[O-])c(-c2ccn[nH]2)s1 | inactive: 85.8%
ClCCSc1nnc(-c2cccnc2)o1 | inactive: 98.6%
CC(C)c1ccc(OP(=O)(Nc2ccccn2)Oc2ccccc2F)cc1 (stereo unspecified) | inactive: 94.2%

Structure (SMILES) | GFP response vs DMSO
Cc1ccc(OP(=O)(Nc2ccc([N+](=O)[O-])cn2)Oc2ccc(C)cc2)cc1 | inactive: 108%
Cc1ccc2nc3c(c(C)c2c1)CC(C(Cl)Cl)S3 (stereo unspecified) | inactive: 103%
O=[As](O)(c1ccc(O)cc1)c1ccccc1O | inactive: 94.7%
C[As](=O)(O)c1cccc(C(=O)O)c1 | inactive: 102%
COc1cc(C(=O)NCC2(N3CCOCC3)CCCCC2)ccc1OCC(C)C | inactive: 104%
COc1ccc(N/C(=N/P(=O)(N2CCOCC2)N2CCOCC2)N2CCOCC2)cc1 | inactive: 96.2%
COc1ccc2nc(NP(=O)(c3ccccc3)c3ccccc3)sc2c1 | inactive: 96.3%
COc1cc(I)ccc1[As](=O)(O)O | inactive: 101%
Cc1c2c(nc3ccccc13)SC(C(Cl)Cl)C2 (stereo unspecified) | inactive: 102%
O=C(OC1CN2CCC1CC2)C12CC3CC(CC(C3)C1)C2 (stereo unspecified) | inactive: 108%
Cc1cc(=O)[nH]c(N[N+](=O)[O-])n1 | inactive: 102%
CCC(C)N(CC(C)C)C(=S)SC(NC(C)=O)C(Cl)(Cl)Cl (stereo unspecified) | inactive: 93.9%
O=C(OC1CN2CCC1CC2)c1cccc([N+](=O)[O-])c1 (stereo unspecified) | inactive: 105%
CCOC(=O)c1ccc(NC(=O)C(C)(CCl)SC)cc1 (stereo unspecified) | inactive: 97.7%
O=C(COc1ccccc1)OC1CN2CCC1CC2 (stereo unspecified) | inactive: 89.8%
O=C(Nc1ccncc1[N+](=O)[O-])c1ccc([N+](=O)[O-])cc1[N+](=O)[O-] | inactive: 96.8%
COP1(=S)c2c(C)nn(CCC#N)c2N=C(c2ccc(F)cc2)N1C (stereo unspecified) | inactive: 107%
O=P(Nc1ccccn1)(c1cccc2ccccc12)c1cccc2ccccc12 | inactive: 96.6%
Cc1cc(SC(NC=O)C(Cl)(Cl)Cl)ncn1 (stereo unspecified) | inactive: 97.5%
O=[N+]([O-])c1ccc(Nc2ccc(Oc3ccc([N+](=O)[O-])cc3[N+](=O)[O-])cc2)c([N+](=O)[O-])c1 | inactive: 106%
CCOC(=O)Nc1cccc([As](=O)(O)O)c1 | inactive: 98.8%
Cc1cc(SC(NC(=O)c2ccccc2)C(Cl)(Cl)Cl)nc(C(C)C)n1 (stereo unspecified) | inactive: 99.5%
CCOC(=O)Nc1ccc([As](=O)(O)O)c(O)c1 | inactive: 106%
